ChEMBL document CHEMBL5321194 (J Med Chem, 2023)
pEC50, pIC50, pKd: −log10 of the molar value.

By UniProt entry, the sequences of proteins in these tests, tags left out.
UniProt Q9UPE1, whole entry: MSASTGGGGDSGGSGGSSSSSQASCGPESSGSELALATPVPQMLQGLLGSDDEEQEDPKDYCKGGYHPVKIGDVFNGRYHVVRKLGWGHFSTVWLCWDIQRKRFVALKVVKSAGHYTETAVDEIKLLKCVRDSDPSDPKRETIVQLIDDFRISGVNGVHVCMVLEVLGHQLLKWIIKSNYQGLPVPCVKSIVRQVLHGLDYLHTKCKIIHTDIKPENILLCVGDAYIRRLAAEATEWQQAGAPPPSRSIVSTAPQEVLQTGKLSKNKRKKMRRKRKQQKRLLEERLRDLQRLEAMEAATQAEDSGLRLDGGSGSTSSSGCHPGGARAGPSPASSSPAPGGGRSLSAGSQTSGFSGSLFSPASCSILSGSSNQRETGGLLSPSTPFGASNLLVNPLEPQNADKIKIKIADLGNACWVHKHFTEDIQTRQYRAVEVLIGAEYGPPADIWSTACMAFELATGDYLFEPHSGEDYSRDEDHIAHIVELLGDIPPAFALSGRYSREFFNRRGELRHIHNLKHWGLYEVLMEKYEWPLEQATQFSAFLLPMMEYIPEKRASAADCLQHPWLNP
UniProt P78362, whole entry, looked up: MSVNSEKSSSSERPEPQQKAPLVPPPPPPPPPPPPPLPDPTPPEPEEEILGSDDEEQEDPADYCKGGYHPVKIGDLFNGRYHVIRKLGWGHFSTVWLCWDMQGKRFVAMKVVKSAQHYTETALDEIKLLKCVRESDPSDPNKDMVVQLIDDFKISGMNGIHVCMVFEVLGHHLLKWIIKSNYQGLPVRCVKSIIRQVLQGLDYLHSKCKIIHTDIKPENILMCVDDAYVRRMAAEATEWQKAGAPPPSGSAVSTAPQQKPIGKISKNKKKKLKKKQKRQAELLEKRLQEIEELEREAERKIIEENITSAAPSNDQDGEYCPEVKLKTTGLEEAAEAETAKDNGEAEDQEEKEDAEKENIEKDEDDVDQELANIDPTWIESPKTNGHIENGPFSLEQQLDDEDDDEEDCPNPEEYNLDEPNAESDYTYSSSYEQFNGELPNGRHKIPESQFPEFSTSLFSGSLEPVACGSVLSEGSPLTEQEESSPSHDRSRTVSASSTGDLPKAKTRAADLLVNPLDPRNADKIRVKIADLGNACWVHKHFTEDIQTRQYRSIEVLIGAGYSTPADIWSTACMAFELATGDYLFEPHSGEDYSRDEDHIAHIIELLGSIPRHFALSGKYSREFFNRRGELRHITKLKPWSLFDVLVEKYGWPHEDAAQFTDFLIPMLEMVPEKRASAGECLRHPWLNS
UniProt Q96SB4, whole entry: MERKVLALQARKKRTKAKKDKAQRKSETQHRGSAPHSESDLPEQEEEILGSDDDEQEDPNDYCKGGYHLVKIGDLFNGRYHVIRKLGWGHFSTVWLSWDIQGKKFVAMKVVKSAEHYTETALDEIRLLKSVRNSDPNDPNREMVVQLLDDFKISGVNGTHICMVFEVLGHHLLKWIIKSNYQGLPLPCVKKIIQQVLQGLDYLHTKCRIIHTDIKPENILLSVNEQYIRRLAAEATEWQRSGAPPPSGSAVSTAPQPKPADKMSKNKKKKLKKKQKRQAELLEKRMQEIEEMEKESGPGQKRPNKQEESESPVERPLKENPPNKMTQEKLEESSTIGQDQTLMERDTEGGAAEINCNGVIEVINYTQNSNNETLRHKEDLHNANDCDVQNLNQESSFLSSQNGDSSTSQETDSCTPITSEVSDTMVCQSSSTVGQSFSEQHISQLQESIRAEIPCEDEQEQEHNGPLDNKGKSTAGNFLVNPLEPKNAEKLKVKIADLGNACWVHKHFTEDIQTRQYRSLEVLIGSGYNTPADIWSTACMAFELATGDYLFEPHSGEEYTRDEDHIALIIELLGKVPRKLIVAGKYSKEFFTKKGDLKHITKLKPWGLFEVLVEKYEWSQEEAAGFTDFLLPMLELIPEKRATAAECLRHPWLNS

Columns and labels:
SRSF protein kinase 3 = SRSF protein kinase 3 (Homo sapiens, UniProt Q9UPE1); conditions: time 10.0 min
SRSF protein kinase 2 [1] = molecular target: T1, SRSF protein kinase 2 (Homo sapiens, UniProt P78362); conditions: time 10.0 min
SRSF protein kinase 1 [2] = molecular target: T2, SRSF protein kinase 1 (Homo sapiens, UniProt Q96SB4); conditions: time 10.0 min
SRSF protein kinase 1 [3] = molecular target: T2, SRSF protein kinase 1
SRSF protein kinase 1 [4] = molecular target: T2, SRSF protein kinase 1; assay: Inhibition of C-terminal nLuc-fused SRPK1 (unknown origin) transfected in intact HEK293T cells by NanoBRET assay
SRSF protein kinase 2 [5] = molecular target: T1, SRSF protein kinase 2
SRSF protein kinase 1 [6] = molecular target: T2, SRSF protein kinase 1; remark: listed apart in the source
SRSF protein kinase 1 [7] = molecular target: T2, SRSF protein kinase 1; remark: listed apart in the source
SRSF protein kinase 2 [8] = molecular target: T1, SRSF protein kinase 2; remark: listed apart in the source

Row | SMILES | ΔTm (SRSF protein kinase 3) [°C] | also measured
1 | CN(c1ncccc1CNc1ccnc(-c2nc3cc(N4CCOCC4)ccc3[nH]2)n1)S(C)(=O)=O | 1.9 | 
2 | CN(c1ncccc1CNc1ccnc(-c2nc3cc(-c4cnn(C)c4)ccc3[nH]2)n1)S(C)(=O)=O | 3.6 | 
3 | CC(C)c1ccc2[nH]c(-c3nccc(NCc4cccnc4N(C)S(C)(=O)=O)n3)nc2c1 | 5.6 | 
4 | CN(c1ncccc1CNc1ccnc(-c2nc3cc(Cl)ccc3n2C)n1)S(C)(=O)=O | 7.1 | 
5 | CN(c1ncccc1CNc1ccnc(-c2nc3cc(F)cc(Cl)c3[nH]2)n1)S(C)(=O)=O | 7.9 | 
6 | CN(c1ncccc1CNc1cccc(-c2nc3cc(Cl)ccc3[nH]2)n1)S(C)(=O)=O | 8.5 | 
7 | CN(c1ncccc1CNc1ccnc(-c2nc3ccc(F)cc3[nH]2)n1)S(C)(=O)=O | 5.3 | 
8 | CN(c1ncccc1CNc1ccnc(-c2nc3cc(F)c(F)cc3[nH]2)n1)S(C)(=O)=O | 5.5 | 
9 | CN(c1ncccc1CNc1ccnc(-c2nc3cc(F)cc(F)c3[nH]2)n1)S(C)(=O)=O | 6.1 | 
10 | CN(c1ncccc1Cn1ccc2cnc(-c3nc4cc(Cl)ccc4[nH]3)nc21)S(C)(=O)=O | 4.7 | 
11 | CN(c1ncccc1CNc1ccnc(-c2nc3c(F)c(Cl)ccc3[nH]2)n1)S(C)(=O)=O |  | pKd (SRSF protein kinase 1 [3]): 6.84; pEC50 (SRSF protein kinase 1 [4]): 7.01; pEC50 (SRSF protein kinase 2 [5]): 6.83; pEC50 (SRSF protein kinase 1 [6]): 7.36; pIC50 (SRSF protein kinase 1 [7]): 8.52; pIC50 (SRSF protein kinase 2 [8]): 7.10

Second part, led by results:

Row | ΔTm (SRSF protein kinase 3) [°C] | SMILES | also measured
12 | 7.8 | CN(c1ncccc1CNc1ccnc(-c2nc3cc(Cl)ccc3[nH]2)n1)S(C)(=O)=O | 
13 | 5.1 | CN(c1ncccc1CNc1nc(-c2nc3cc(Cl)ccc3[nH]2)ncc1Br)S(C)(=O)=O | 
14 | 3 | CN1CCN(c2cc3nc(-c4nccc(NCc5cccnc5N(C)S(C)(=O)=O)n4)[nH]c3cc2F)CC1 | 
15 | 3.8 | COc1ccc2[nH]c(-c3nccc(NCc4cccnc4N(C)S(C)(=O)=O)n3)nc2c1 | 
16 | 7.8 | CN(c1ncccc1CNc1ccnc(-c2nc3cc(Cl)cc(F)c3[nH]2)n1)S(C)(=O)=O | 
17 | 4 | CN(c1ncccc1Cn1ccc2cnc(-c3nc4cc(Cl)ccc4[nH]3)cc21)S(C)(=O)=O | 
18 | 6.5 | Cc1ccc2nc(-c3nccc(NCc4cccnc4N(C)S(C)(=O)=O)n3)[nH]c2c1 | 
19 | 7 | CN(c1ncccc1CNc1ccnc(-c2nc3cc(Cl)c(F)cc3[nH]2)n1)S(C)(=O)=O | 
20 | 3.5 | CN(c1ncccc1CNc1ccnc(-c2nc3ccccc3[nH]2)n1)S(C)(=O)=O | 
21 | 5.8 | CN(c1ncccc1CNc1ccnc(-c2nc3ccc(C#N)cc3[nH]2)n1)S(C)(=O)=O | 
22 | 5.6 | CN(Cc1cccnc1N(C)S(C)(=O)=O)c1ccnc(-c2nc3cc(Cl)ccc3[nH]2)n1 | 
23 | 1 | CN(c1ncccc1CNc1ccnc(-c2cc3cc(Cl)ccc3[nH]2)n1)S(C)(=O)=O | ΔTm (SRSF protein kinase 2 [1]): 0.3 °C; ΔTm (SRSF protein kinase 1 [2]): 0.5 °C
